# Biological target: α7GlyR chimeric channels with G175K and A298G mutations (Homo sapiens, UniProt Z9PBR2L694)
# Details: read-out: Agonist potency
smiles,measurement,value
c1cnc2cc3c(cc2n1)C1CNCC3C1,EC50,> 30 µM
